Measurements as given in PubChem BioAssay (NCI).
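1) Cells in 96-well plates. 2) Compound, 48 h, 5 concentrations. 3) Linear interpolation between surrounding doses. 4) Unreached endpoint = highest concentration. Abbreviation: GI50, concentration required for 50% inhibition of growth. At the TGI there is no net growth.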

Assays:
Assay in all cases: DTP human tumour cell line panel, 48 h
786-0 renal = tested on: 786-0 renal
A549 NSCLC = tested on: A549 NSCLC
ACHN renal = tested on: ACHN renal
BT-549 breast = tested on: BT-549 breast
CAKI-1 renal = tested on: CAKI-1 renal
CCRF-CEM leukemia = tested on: CCRF-CEM leukemia
COLO 205 colon = tested on: COLO 205 colon
DU-145 prostate = tested on: DU-145 prostate
EKVX NSCLC = tested on: EKVX NSCLC
HCC-2998 colon = tested on: HCC-2998 colon
HCT-116 colon = tested on: HCT-116 colon
HCT-15 colon = tested on: HCT-15 colon
HL-60(TB) leukemia = tested on: HL-60(TB) leukemia
HOP-62 NSCLC = tested on: HOP-62 NSCLC
HS 578T breast = tested on: HS 578T breast
HT29 colon = tested on: HT29 colon
IGROV1 ovarian = tested on: IGROV1 ovarian
K-562 leukemia = tested on: K-562 leukemia
KM12 colon = tested on: KM12 colon
LOX IMVI melanoma = tested on: LOX IMVI melanoma
M14 melanoma = tested on: M14 melanoma
MALME-3M melanoma = tested on: MALME-3M melanoma
MCF7 breast = tested on: MCF7 breast
MDA-MB-231 breast = tested on: MDA-MB-231 breast
MDA-MB-435 = tested on: MDA-MB-435
MDA-N = tested on: MDA-N
MOLT-4 leukemia = tested on: MOLT-4 leukemia
NCI-H226 lung = tested on: NCI-H226 lung
NCI-H23 lung = tested on: NCI-H23 lung
NCI-H322M lung = tested on: NCI-H322M lung
NCI-H460 lung = tested on: NCI-H460 lung
NCI-H522 lung = tested on: NCI-H522 lung
NCI/ADR-RES ovarian = tested on: NCI/ADR-RES ovarian
OVCAR-3 ovarian = tested on: OVCAR-3 ovarian
OVCAR-4 ovarian = tested on: OVCAR-4 ovarian
OVCAR-5 ovarian = tested on: OVCAR-5 ovarian
OVCAR-8 ovarian = tested on: OVCAR-8 ovarian
PC-3 prostate = tested on: PC-3 prostate
RXF 393 renal = tested on: RXF 393 renal
SF-268 CNS = tested on: SF-268 CNS
SF-295 CNS = tested on: SF-295 CNS
SF-539 CNS = tested on: SF-539 CNS
SK-MEL-2 melanoma = tested on: SK-MEL-2 melanoma
SK-MEL-28 melanoma = tested on: SK-MEL-28 melanoma
SK-MEL-5 melanoma = tested on: SK-MEL-5 melanoma
SK-OV-3 ovarian = tested on: SK-OV-3 ovarian
SN12C renal = tested on: SN12C renal
SNB-19 CNS = tested on: SNB-19 CNS
SNB-75 CNS = tested on: SNB-75 CNS
SR leukemia = tested on: SR leukemia
SW-620 colon = tested on: SW-620 colon
T-47D breast = tested on: T-47D breast
TK-10 renal = tested on: TK-10 renal
U251 CNS = tested on: U251 CNS
UACC-257 melanoma = tested on: UACC-257 melanoma
UACC-62 melanoma = tested on: UACC-62 melanoma
UO-31 renal = tested on: UO-31 renal

## CC(C)(C)CN1[C@@H]2CCCC[C@H]2N(CC(C)(C)C)P1(C)=O
786-0 renal
  GI50: 38.1 µM
  TGI: > 100 µM
A549 NSCLC
  GI50: 32.1 µM
  TGI: > 100 µM
ACHN renal
  GI50: 32.2 µM
  TGI: > 100 µM
BT-549 breast
  GI50: 32.7 µM
  TGI: > 100 µM
CAKI-1 renal
  GI50: 50.9 µM
  TGI: > 100 µM
CCRF-CEM leukemia
  GI50: 36.4 µM
  TGI: > 100 µM
COLO 205 colon
  GI50: 17.4 µM
  TGI: 32 µM
DU-145 prostate
  GI50: 32.2 µM
  TGI: > 100 µM
EKVX NSCLC
  GI50: 29.3 µM
  TGI: > 100 µM
HCC-2998 colon
  GI50: 20 µM
  TGI: 47.1 µM
HCT-116 colon
  GI50: 25.7 µM
  TGI: > 100 µM
HCT-15 colon
  GI50: 26.3 µM
  TGI: > 100 µM
HL-60(TB) leukemia
  GI50: 20.5 µM
  TGI: 45.5 µM
HOP-62 NSCLC
  GI50: 38.5 µM
  TGI: > 100 µM
HS 578T breast
  GI50: 22.4 µM
  TGI: 58.8 µM
HT29 colon
  GI50: 25.1 µM
  TGI: > 100 µM
IGROV1 ovarian
  GI50: 17.2 µM
  TGI: 65.3 µM
K-562 leukemia
  GI50: 43.7 µM
  TGI: 91.8 µM
KM12 colon
  GI50: 44.1 µM
  TGI: > 100 µM
LOX IMVI melanoma
  GI50: 48.1 µM
  TGI: > 100 µM
M14 melanoma
  GI50: 29.2 µM
  TGI: > 100 µM
MALME-3M melanoma
  GI50: 26.6 µM
  TGI: 97.1 µM
MCF7 breast
  GI50: 31.6 µM
  TGI: > 100 µM
MDA-MB-231 breast
  GI50: 25.5 µM
  TGI: 86.8 µM
MDA-MB-435
  GI50: 20.1 µM
  TGI: 50.3 µM
MDA-N
  GI50: 19.6 µM
  TGI: 47 µM
MOLT-4 leukemia
  GI50: 33.5 µM
  TGI: 78.6 µM
NCI-H226 lung
  GI50: 25.2 µM
  TGI: 67.9 µM
NCI-H23 lung
  GI50: 29.2 µM
  TGI: > 100 µM
NCI-H322M lung
  GI50: 50.2 µM
  TGI: > 100 µM
NCI-H460 lung
  GI50: 33.6 µM
  TGI: > 100 µM
NCI-H522 lung
  GI50: 16.8 µM
  TGI: 39.3 µM
NCI/ADR-RES ovarian
  GI50: 32.6 µM
  TGI: > 100 µM
OVCAR-3 ovarian
  GI50: 22.3 µM
  TGI: 66.5 µM
OVCAR-4 ovarian
  GI50: 29.9 µM
  TGI: > 100 µM
OVCAR-5 ovarian
  GI50: 32.6 µM
  TGI: > 100 µM
OVCAR-8 ovarian
  GI50: 33.7 µM
  TGI: > 100 µM
PC-3 prostate
  GI50: 21.2 µM
  TGI: 54.6 µM
RXF 393 renal
  GI50: 14.2 µM
  TGI: 46.2 µM
SF-268 CNS
  GI50: 32.2 µM
  TGI: > 100 µM
SF-295 CNS
  GI50: 29 µM
  TGI: > 100 µM
SF-539 CNS
  GI50: 25.5 µM
  TGI: 64.5 µM
SK-MEL-2 melanoma
  GI50: 19 µM
  TGI: 43.6 µM
SK-MEL-28 melanoma
  GI50: > 100 µM
  TGI: > 100 µM
SK-MEL-5 melanoma
  GI50: 22.2 µM
  TGI: 52.8 µM
SK-OV-3 ovarian
  GI50: 33.5 µM
  TGI: > 100 µM
SN12C renal
  GI50: 32.9 µM
  TGI: > 100 µM
SNB-19 CNS
  GI50: 49.3 µM
  TGI: > 100 µM
SNB-75 CNS
  GI50: 13.7 µM
  TGI: 43 µM
SR leukemia
  GI50: 29.6 µM
  TGI: 64.4 µM
SW-620 colon
  GI50: 30.4 µM
  TGI: > 100 µM
T-47D breast
  GI50: 15.4 µM
  TGI: 59.4 µM
TK-10 renal
  GI50: 24.3 µM
  TGI: 80.1 µM
U251 CNS
  GI50: 33.3 µM
  TGI: > 100 µM
UACC-257 melanoma
  GI50: 35.6 µM
  TGI: > 100 µM
UACC-62 melanoma
  GI50: 26.2 µM
  TGI: > 100 µM
UO-31 renal
  GI50: 24.4 µM
  TGI: > 100 µM
